# According to patent EP4847524A2, “FATTY ACID CONJUGATED CYCLIC PEPTIDES” (dated 2026):
# Legend:
# [1] = Sample preparation and solubility (visual observation, RP-HPLC soluble content)
# Description: Preliminary screening methods for the evaluation of multiple fatty acid peptide analogs included a two-stage approach. First, formulations were prepared at target concentrations of approximately 10, 20, 40 or 50 mg/mL in 150 mM phosphate, pH 7.5. These formulations were titrated using NaOH, as needed, to the target pH 7.5 and were evaluated (visual assessment only). For visibly insoluble formulations, an additional buffer was added to dissolve the peptide. Once dissolved, all formulations were filtered through a 0.2 µm PVDF filter membrane and analyzed by RP-HPLC for soluble content. Formulations were incubated at 4°C, room temperature, and 37°C. At day 0 and 7 the formulations were analyzed by visual observation for solubility, size exclusion chromatography (SEC) for aggregation, & RP-HPLC for chemical stability studies.
# [2] = system: adrenocorticotropin hormone (ACTH); test: ACTH reduction in adrenalectomized rats, dose response-repeat dose; conditions: repeat dosing 700nmol/kg (baseline, 48 and 96 hours), 24 hours; mean (SEM); FIG. 12
# Text: Male, Sprague Dawley rats (226-250g/ 55-58 days old) underwent adrenalectomy surgery at Charles River Laboratories prior to shipment. Once delivered, postoperative care was provided by facility personnel. Rats (n=9-10 per group) were maintained single-housed with a 12:12 light/dark cycle. To compensate for the removal of adrenal mineralocorticoids and promote weight maintenance, they were supplemented with 0.9% NaCl and 1% sucrose in their drinking water. Additional pellets, medium high fat/sweet (Research Diets) were provided daily on the cage floor in addition to regular rat chow. Rats were allowed to recover and habituate for a week. Cage change occurred at least two days prior to the start of the experiment and again after one week if required for longer experiments. Water changes occurred every 3-4 days after experiments to avoid additional stress.
# All experiments were conducted in the morning, to avoid circadian differences in adrenocorticotropic hormone (ACTH). Prior to collection of a whole blood sample via the tail vein, experimental animals were placed in a rat warmer 15-20 minutes prior to the designated time points. The animals were then placed in a rat restrainer and a 24-gauge catheter was placed in the tail vein. The blood (0.15-0.2mL/ sample) was collected into a 600µL Sarstedt tube that contained 1.2-2.0 mg EDTA-K3/mL. […]
# [3] = Peptide pharmacokinetics, dog study (IV and SC)
# Description: (§1) Pharmacokinetics of the test peptides were evaluated in vivo as described herein. Male Sprague Dawley rats (300-450 g), male Beagle dogs (5-10 kg) and male cynomolgus monkeys (2-4 kg) were used in the pharmacokinetics (PK) study. All animal procedures were approved by the Institutional Animal Care and Use Committee at the Test Facility.
# (§2) For IV dosing, compounds were administered by intravenous bolus injection into one of the two peripheral tail veins, at either 0.1 mg/kg or 0.3 mg/kg in 0.01 M phosphate (pH 7.4, 1 mg/mL). Following dosing, the catheter was flushed with 3 mL of saline prior to removal. For SC dosing, compounds were administered at the intra-scapular skin, at 0.3 mg/kg or 0.9 mg/kg in 0.01M phosphate (pH 7.4, 5 mg/mL). The SC injection site was prepared by clipping away the hair and cleaning with alcohol. After administration the dose site was marked with indelible ink.
# (§3) Blood samples were collected into tubes with K2EDTA. Tubes were stored on wet ice until processed to plasma by centrifugation (2,200 x g at nominal 4°C for 10 minutes) within 60 minutes of collection. Plasma samples were transferred into individual uniquely labeled matrix tubes and stored at nominal -80°C until analysis by liquid chromatography tandem-mass spectrometry (LC-MS/MS).
# (§4) The plasma samples were prepared by solid phase extraction (SPE) using a Waters PRiME HLB Microelution plate. The SPE plate was conditioned using water:methanol (50:50, v/v) and 0.5% tween 80 in water. After pretreated samples were loaded, wells were washed with 5% methanol in water and 0.1% TFA in water:acetonitrile (80:20, v/v). Wells were eluted with 0.1% formic acid, 0.5% 2,2,2-trifluoroethanol in water:acetonitrile (20:80, v/v) followed by a dilution with 0.1% formic acid, 0.1% tween 80 in water for analysis by LC-MS/MS. The analyte and internal standard (IS) were separated by reversed-phase chromatography using a Shimadzu Nexera X2 UHPLC system and Phenomenex bioZen Peptide PS-C18 50x2.1-mm, 3µm column. The analyte and IS were detected using an Applied Biosystems Sciex API 6500 triple quadrupole mass spectrometer. The mass spectrometer was equipped with an electrospray ionization source operated in the positive-ion mode. The analyte and internal standard were monitored in the multiple-reaction-monitoring scan mode.
# (§5) Noncompartmental pharmacokinetic parameters were calculated using Phoenix® WinNonlin® software (Version 8.3; Linear Up Log Down Interpolation Calculation Method; Certara L.P.).
# [4] = Peptide pharmacokinetics, monkey study (IV and SC); conditions: Cyno
# Description: as §1
# as §2, with “at” for “at either”, “0.01M” for “0.01 M”, “administration,” for “administration”, “the” for “the dose”, “a circle approximately 5cm in diameter.” for “indelible ink.”
# as §3, §4, §5
# [5] = SC Dose 0.3 mg/kg, IV dose 0.1 mg/kg
substance,measurement,setting,value
Ac-Asp-Leu-Thr-D-Phe-His-Leu-Leu-Arg-Glu-Val-Leu-Glu-Nle-K*-Arg-Glu-Glu-Gln-cVal-Ala-Gln-E#-Ala-Glu-K#-Asn-Arg-Lys-Leu-Nle-Glu-cVal-Ala-CONH2,Solubility 150 mM phosphate pH 7.4 (mg/mL),[1]; 150 mM phosphate pH 7.4,≥45 mg/mL
same,solubility,[1]; in either 10mM phosphate at pH 7 or 10mM TRIS at pH8,> 100 mg/mL
same,solubility (Table 15),"[1]; preliminary screening formulations, 150 mM phosphate, pH 7.5",≥ 45 mg/mL
same,percentage ACTH reduction versus vehicle (normalized to t=0),[2],85.4%
same,IV CL,[3]; IV dose 0.1 mg/kg,8.6 mL/day/kg
same,IV Vd,[3]; IV dose 0.1 mg/kg,0.041 L/kg
same,IV t1/2,[3]; IV dose 0.1 mg/kg,72.2 h
same,SC AUC,[3]; SC Dose 0.3 mg/kg,483 µg·h/mL
same,SC Cmax,[3]; SC Dose 0.3 mg/kg,3620 ng/mL
same,SC Tmax,[3]; SC Dose 0.3 mg/kg,27 h
same,SC t1/2,[3]; SC Dose 0.3 mg/kg,179 h
same,SC F,[3]; [5],80%
same,IV CL,[4]; IV dose 0.1 mg/kg,18.7 mL/day/kg
same,IV Vd,[4]; IV dose 0.1 mg/kg,0.056 L/kg
same,IV t1/2,[4]; IV dose 0.1 mg/kg,48.2 h
same,SC AUC,[4]; SC Dose 0.3 mg/kg,275 µg·h/mL
same,SC Cmax,[4]; SC Dose 0.3 mg/kg,2490 ng/mL
same,SC Tmax,[4]; SC Dose 0.3 mg/kg,56 h
same,SC t1/2,[4]; SC Dose 0.3 mg/kg,102 h
same,SC F,[4]; [5],79%
